The text below walks through data of ChEMBL document CHEMBL1122420, “Parasympatholytic (anticholinergic) esters of the isomeric 2-tropanols. 2. Non-glycolates” (J Med Chem, 1983).

The test system of the assay is Mus musculus. Briefly: Induction of mydriasis in mice following s.c. administration. It counts as functional.

Usually ED50 stands for the dose at which the effect has come halfway, by size or by number of responders. Lower therefore signals an effect at a small dose. `COc1cc(C(=O)OC2CN3CCC2CC3)cc(OC)c1OC` (stereo unspecified): the ED50 was over 10 mg/kg.
